Laboratory results taken from ChEMBL document CHEMBL3390842 (Medchemcomm, 2012).

Sequences of proteins named here, by UniProt entry; tags and fusion partners are left off.
UniProt Q9HC97, whole entry: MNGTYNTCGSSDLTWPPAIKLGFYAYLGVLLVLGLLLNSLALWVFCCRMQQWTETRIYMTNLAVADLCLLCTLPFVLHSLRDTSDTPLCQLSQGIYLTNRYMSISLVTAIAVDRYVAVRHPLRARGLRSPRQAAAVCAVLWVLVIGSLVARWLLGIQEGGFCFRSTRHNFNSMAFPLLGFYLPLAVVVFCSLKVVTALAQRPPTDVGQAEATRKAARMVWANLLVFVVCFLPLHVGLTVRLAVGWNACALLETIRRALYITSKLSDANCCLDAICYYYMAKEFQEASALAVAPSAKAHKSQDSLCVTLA

Columns and labels:
[1] = target: T1, G-protein coupled receptor 35 (Homo sapiens, UniProt Q9HC97); details: ht-29
[2] = target: T1, G-protein coupled receptor 35; details: u2os

In the case of `Nc1cc([N+](=O)[O-])cc([N+](=O)[O-])c1O`, the EC50 [1] is reported as 190 nM and the EC50 [2] is reported as 5370 nM.
